Compounds with a hit are over-represented: about 13% of the library has one in this group of screens.
miR-21 FLuc – miR-21 reporter, rising signal | 340,000 tested, under 10 active | AID 2288 | HeLa miR-21 FLuc reporter, luciferase, 48 h | Potency, µM (titrated, usually from 38.3 µM), for inactives: at the highest dose reporter change, positive = more light; active = well fitted rising curve with a large enough effect; inconclusive = small, poorly fitted or top-dose-only effect; inactive = no such curve, though single readings can be large or run the other way;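 further: % of control where 0% means no effect; miR-21 action dims this reporter so a rising signal means less miR-21 action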
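HeLa miR-21-FLuc reporter line, endogenous miR-21; 2000 cells/well in DMEM/10% FBS; compound titration up to ~40uM final, 48 h, 37 degree Celsius; luciferase detection reagent, 15 min lysis, CCD luminescence.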
ALDH1A1 block – blocks purified human ALDH1A1 activity | P00352 | Purified ALDH1A1, NADH fluorescence, propionaldehyde substrate | Potency, µM (doses to about 75.3 µM), for inactives: at the highest dose activity, negative = inhibition, usual class: inhibitors | 220,000 compounds, 7.3% hits; active means well fitted inhibition curve with a large enough effect, not every such curve was filed as active; inconclusive means small, poorly fitted or top-dose-only effect, or another doubt; inactive means no such curve, though single readings can be large or run the other way;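 further: potency means the concentration at half of the fitted maximal effect; plate controls were no enzyme wells and a reference inhibitor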
JMJD2E inh – JMJD2E (human) inhibition; B2RXH2; JMJD2E catalytic domain, FDH-coupled NADH fluorescence (FDH is formaldehyde dehydrogenase); Potency, µM (top dose mostly 57.1 µM), for the others: top-dose activity change, negative = inhibition, actives largely listed as inhibitors; 230,000 compounds, 1.6% hits; active means well fitted inhibition curve with a large enough effect, not every such curve was filed as active; inconclusive means small, poorly fitted or top-dose-only effect, or another doubt; inactive means no such curve, though single readings can be large or run the other way;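 further: potency means the concentration at half of the fitted maximal effect; 0% = wells with enzyme and -100% = buffer wells without enzyme; nearly all actives have a fitted effect of over 50% in size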
Sfp PPTase inh – Sfp phosphopantetheinyl transferase inhibition; 310,000 tested, 3.5% active; Potency, µM, inactives show max response, negative = inhibition, hits mostly inhibitors; AID 1490; Q9F4F7; Biochemical Sfp PPTase activity, qHTS; active = well fitted inhibition curve with a large enough effect; inconclusive = small, poorly fitted or top-dose-only effect, or another doubt; inactive = no such curve, though single readings can be large or run the other way;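 also: the enzyme is Sfp with the accession as filed and its product quenches rhodamine fluorescence; potency is read from the fitted curve at half-maximal effect; 0% = enzyme reaction without inhibitor and -100% = no enzyme wells; top concentration of the series not given in the record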
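Fluorescence-quenching assay: 15 nM Sfp-PPTase preincubated 15 min at room temperature with compound, then 5 uM rhodamine-CoA and 12.5 uM BHQ-2-labelled YbbR peptide added. Fluorescence (ex 525/em 598 nm) read at start and after 30 min; difference gives rate.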
Lamin A splicing – LMNA splicing modulation. HeLa LMNA splicing GFP/RFP minigene ratio, 48 h. Potency, µM (doses to about 46.1 µM), for the others: top-dose ratio change, negative = inhibition, actives largely listed as inhibitors. 200,000 compounds, 0.01% hits. AID 1487; active means well fitted inhibition curve with a large enough effect in the signal ratio, with a control signal flat, not every such curve was filed as active; inconclusive means small, poorly fitted or top-dose-only effect, or effect the other way, or a change in a side signal; the % refers to the signal ratio; further: potency means the concentration at half of the fitted maximal effect; on the % scale 0 is the no-effect control and ±100 the full control effect
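Read-out is the ratio of GFP to DsRed2 object intensity, acquired by 488 nm laser-scanning cytometry on HeLa lamin A-EGFP minigene reporter cells. Compound incubation 48 hrs at 37 °C in Opti-MEM with 2% FBS; DMSO 0.5% final.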
G9a block – G9a (human) methyltransferase inhibition. AID 504332. 350,000 compounds, 8.8% hits. Potency, µM (top dose mostly 102 µM), inactives show at the top dose activity, negative = inhibition, actives largely listed as inhibitors. G9a H3K9 monomethylation, AlphaScreen, 2 h. Q96KQ7; further: potency means the concentration at half of the fitted maximal effect; on the % scale 0 is the no-effect control and ±100 the full control effect; nearly all actives have a fitted effect of over 75% in size
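AlphaScreen read-out: biotin-H3K9 peptide (500 nM) methylation by 20 nM enzyme with 20 uM SAM, 2 h at room temperature after 15 min compound preincubation; anti-monomethyl H3K9 antibody plus donor/acceptor beads, 10 min dark.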
Active calls of the source: *; ! = not active in a repeat; [ ] = another dose, or the depositor's remark. Unless noted, the call rests on the fitted dose curve; in most records, active means well fitted curve in the direction sought with a large enough effect; inconclusive means small, poorly fitted or top-dose-only effect, or another doubt; inactive means no such curve, though single readings can be large; an effect the other way counts as inactive or inconclusive.

Screening COc1ccc([C@@H](Nc2ccccn2)c2cc(C(C)(C)C)cc(C(C)(C)C)c2O)cc1 returned ALDH1A1 block 11%[13.5 µM].
For Cc1ccc(NC(=S)NC2CCCC2)c(C)c1 the results were miR-21 FLuc -12%, Sfp PPTase inh 16% and G9a block 13%.
For COC(=O)Nc1nc2ccc(-c3n[nH]c(=O)c4ccccc34)cc2[nH]1 the results were miR-21 FLuc 2%, ALDH1A1 block 4%, JMJD2E inh -20%, Sfp PPTase inh inconclusive, Lamin A splicing inconclusive and G9a block 50µM*.
O=C(Nc1ccccc1)N1CCCC2CCCCC21 (configuration not stated) was read as miR-21 FLuc -41%, ALDH1A1 block -12%, JMJD2E inh -7%, Sfp PPTase inh -3%, Lamin A splicing -13% and G9a block -22%.
CC(=O)Nc1cc(NC(C)=O)cc(C(=O)N2CCCC3CCCCC32)c1 (configuration not stated) was read as miR-21 FLuc -4%, Sfp PPTase inh 5% and G9a block 50µM*.
Cn1cc(CN2CCc3ccccc3C2)c2ccccc21 was read as miR-21 FLuc -4%, ALDH1A1 block 14µM*, JMJD2E inh -7%, Sfp PPTase inh -13%, Lamin A splicing -18% and G9a block inconclusive.
Screening COc1ccccc1N1CCN(Cc2cc3c(cc2O)OCO3)CC1 returned miR-21 FLuc -2%, Sfp PPTase inh 0% and G9a block 10µM*.
Screening Oc1ccc(CN2CCc3ccccc3C2)c2cccnc12 returned miR-21 FLuc inconclusive, ALDH1A1 block -3%, JMJD2E inh inconclusive, Sfp PPTase inh 9%, Lamin A splicing inconclusive and G9a block inconclusive.
For Oc1cc2c(cc1CN1CCc3ccccc3C1)OCO2 the results were miR-21 FLuc -16%, Sfp PPTase inh -1% and G9a block 20µM*.
Screening COc1ccccc1N1CCN(Cc2cc(Br)c(O)c3ncccc23)CC1 returned miR-21 FLuc inconclusive, ALDH1A1 block inconclusive, JMJD2E inh 25µM*, Sfp PPTase inh 17%, Lamin A splicing inconclusive and G9a block 8.9µM*.
Cc1ccc(-c2nnc(Nc3ccc(F)cc3)c3ccccc23)cc1S(=O)(=O)NC(C)C was read as miR-21 FLuc -4% and G9a block 5%[59 µM].
COc1ccc2nc(C)cc(N3CCN(S(=O)(=O)c4ccccc4F)CC3)c2c1 was read as G9a block -10%[12.7 µM].
For Cc1cccc2c(N=O)c(O)n(CCc3ccccc3)c12 the results were miR-21 FLuc 11%, Sfp PPTase inh -3% and G9a block -4%.
C/C=C/c1ccc(O)c(OC)c1 was read as ALDH1A1 block -6%, Sfp PPTase inh -11%, Lamin A splicing -12% and G9a block 10µM*!.
Screening COc1cc(/C=C2\CC/C(=C\c3ccc(OCCO)c(OC)c3)C2=O)ccc1OCCO returned miR-21 FLuc -7%, ALDH1A1 block inconclusive, JMJD2E inh -16%, Sfp PPTase inh -16% and G9a block 45µM*.

Three neighbouring entries out of the list so far, quoted:
For Cc1cccc2c(N=O)c(O)n(CCc3ccccc3)c12 the results were miR-21 FLuc 11%, Sfp PPTase inh -3% and G9a block -4%.
C/C=C/c1ccc(O)c(OC)c1 was read as ALDH1A1 block -6%, Sfp PPTase inh -11%, Lamin A splicing -12% and G9a block 10µM*!.
Screening COc1cc(/C=C2\CC/C(=C\c3ccc(OCCO)c(OC)c3)C2=O)ccc1OCCO returned miR-21 FLuc -7%, ALDH1A1 block inconclusive, JMJD2E inh -16%, Sfp PPTase inh -16% and G9a block 45µM*.

The list goes on.
COc1cc(/C=C2\COC/C(=C\c3ccc(O)c(OC)c3)C2=O)ccc1O was read as miR-21 FLuc inconclusive, ALDH1A1 block inconclusive, JMJD2E inh -11%, Sfp PPTase inh 8%, Lamin A splicing inconclusive and G9a block 32µM*.
`COc1cc(/C=C2/CC/C(=C/c3ccc(O)c(OC)c3)C2=O)ccc1O` gave miR-21 FLuc 22%, JMJD2E inh 11µM*, Sfp PPTase inh inconclusive and G9a block inconclusive.
CCN1C/C(=C/c2ccc(OC)c(O)c2)C(=O)/C(=C/c2ccc(OC)c(O)c2)C1 was read as miR-21 FLuc inconclusive, ALDH1A1 block 1%, JMJD2E inh -6%, Sfp PPTase inh -6%, Lamin A splicing inconclusive and G9a block inconclusive.
`C/C=C/c1ccc(OC(C)=O)c(OC)c1` gave miR-21 FLuc -5%, ALDH1A1 block 3%, JMJD2E inh 0%, Sfp PPTase inh 24%, Lamin A splicing -2% and G9a block -7%.
Screening COc1ccc(/C=C2\CC/C(=C\c3ccc(OC)c(OC)c3)C2=O)cc1OC returned miR-21 FLuc -8%, ALDH1A1 block -13%, JMJD2E inh -12%, Sfp PPTase inh -20%, Lamin A splicing inconclusive and G9a block inconclusive.
For O=C(N[C@@H](Cc1ccccc1)C(=O)NCc1ccc(F)cc1)C1CCNCC1 the results were miR-21 FLuc -1%, Sfp PPTase inh 19% and G9a block -11%.
`COc1ccc(C(=O)NCC(c2ccc3c(c2)OCO3)N2CCN(C)CC2)cc1OC` (configuration not stated) gave miR-21 FLuc -13%, Lamin A splicing -7%[46 µM] and G9a block 12%[59 µM].
`Cc1ccc2nc(NC(=O)CSc3nccn3Cc3ccc(Cl)cc3)sc2c1` gave miR-21 FLuc -1%, Lamin A splicing inconclusive and G9a block 0%[59 µM].
For CCc1ccccc1-n1c2c(cc(-c3nc(-c4ccc(Cl)cc4)cs3)c1=O)C(=O)CC(C)(C)C2 the results were miR-21 FLuc -5% and G9a block inconclusive.

Bioassay records: PubChem, National Center for Advancing Translational Sciences (NCATS)
